Test results taken from EP1914235A1, “CHIRAL TETRA-HYDRO BETA-CARBOLINE DERIVATIVES AND APPLICATIONS THEREOF AS ANTIPARASITIC COMPOUNDS” (Université de Lille 2 Droit et Santé, priority 2006, dated 2008).

System: Plasmodium berghei ANKA strain
Test: In vivo antiparasitic activity in infected mice (4-day dosing, parasitemia on day 5)
Conditions: control drug, per os every day for 4 days at 10 mg/kg
Experimental: P. berghei ANKA strain, which is chloroquine sensitive (Killick-Kendrick, 1978).
Female mice (TFW or BALB/c, specific pathogen free), 18-20 g, or
Infection: Blood was taken from donor mice and diluted in RPMI-1640 medium to a parasitemia of 1% (the equivalent of 1x10^7 infected erythrocytes/ml) whilst kept on ice. An inoculum of 0.2 ml was administered to each mouse by the intravenous route. At 2-4 hours post-inoculation dosing commences.
Evaluation endpoint: On day 5 blood smears of all animals (2 slides/mouse) were prepared, fixed with methanol and stained with 10% Giemsa's stain. Parasitemia was determined microscopically by counting 1000 red blood cells under oil immersion at 1000x magnification. Results were reported as % infected erythrocytes and compared to the chloroquine control group and the untreated control group.
The chloroquine sensitive Plasmodium berghei ANKA strain was used in the primary evaluation.
Each of the tested compounds of formula (I) according to the invention was prepared as a stock solution of 5 mg/ml in 10% DMSO/PBS. Insoluble compounds of formula (I) were milled with stainless steel balls for up to 24 hours to reduce particle size. Fresh dilutions were prepared each day. The route of administration of tested compounds is intra peritoneal (i.p.). […]

## CCN(CC)CCCC(C)Nc1ccnc2cc(Cl)ccc12 (stereo not shown) [Chloroquine, reference compound]
  parasite clearance on day 4: > 90%
